# Test results as given in PubChem BioAssay AID431 (Sanford-Burnham Center for Chemical Genomics, 2006).
# This is a selection; strong and weak results do not stand in their true shares. Measured potencies and affinities stand elsewhere. Active and inactive are the calls of the source.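 Rule for the calls: active = compounds whose percent cytotoxicity in the single-dose primary screen, scaled between solvent and toxic-drug controls, exceeds 50; inactive = the rest.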
# Assay: viability loss of HPDE-C7K cells – cell-based, fluorescence, HTS, primary screen (AID 431);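 note: 0% = DMSO solvent wells and 100% = doxorubicin-treated wells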
# Conditions: HPDE-C7K KRASV12 cells, Alamar Blue viability, 48 h; at 10 µM; active compounds read high
row,Structure (SMILES),cytotoxicity
1,COc1ccc(NC2CCN(CCc3ccccc3)CC2)c(OC)c1,inactive: 27.9%
2,O=C(OC1CN2CCC1CC2)C1c2ccccc2Oc2ccccc21 (stereo unspecified),inactive: -0.2%
3,N#CC1(Nc2ccccc2)CCN(CCc2ccccc2)CC1,inactive: 4%
4,CCC(CO)(C(=O)OC1CN2CCC1CC2)c1ccccc1 (stereo unspecified),inactive: -5.1%
5,CCOc1ncccc1C(=O)NCC1(N2CCOCC2)CCCCC1,inactive: 10.6%
6,Fc1ccccc1NC1CCN(Cc2ccccc2)CC1,inactive: 8.8%
